Measurements published in patent US20140004198A1, “GLP-1 PARTICLES AND COMPOSITIONS” (Novo Nordisk A/S, priority 2011, published 2014).

Experiment: Solubility of protamine sulphate stock solution with added NaCl
Type: physicochemical
Conditions: 21° C.
Protocol: In one embodiment, the stock solution of the polycationic compound is prepared with NaCl. […] This allows the storage and/or use of higher concentrations and lowers the volumes of polycationic compound stock solution needed. This makes much larger volume available for either the GLP-1 compound stock solution or the solution of metal salt. Thereby, it is easier to control the mixing process, involving the aqueous solution of GLP-1 compound and the stock solution of metal salt. As a result of this, it is easier to control the particle size of the core precipitate. The injectability of the final formulation is thereby improved, especially after storage at elevated temperatures. For example, a 30-60 mg/mL protamine sulphate stock solution is achievable at 21° C. when adding sodium chloride corresponding to a concentration of 0.3M, and a 30-80 mg/mL protamine sulphate stock solution is achievable at 21° C. when adding sodium chloride corresponding to a concentration of 0.5M.

## protamine sulphate
Sodium chloride 0.3M
  achievable protamine sulphate stock solution concentration: 30 to 60 mg/mL
Sodium chloride 0.5M
  achievable protamine sulphate stock solution concentration: 30 to 80 mg/mL
